By UniProt entry, the sequences of proteins in these tests, tags left out. Where a name states a change or a piece, a line headed by the entry shows the natural chain unless it says otherwise.
UniProt P41146: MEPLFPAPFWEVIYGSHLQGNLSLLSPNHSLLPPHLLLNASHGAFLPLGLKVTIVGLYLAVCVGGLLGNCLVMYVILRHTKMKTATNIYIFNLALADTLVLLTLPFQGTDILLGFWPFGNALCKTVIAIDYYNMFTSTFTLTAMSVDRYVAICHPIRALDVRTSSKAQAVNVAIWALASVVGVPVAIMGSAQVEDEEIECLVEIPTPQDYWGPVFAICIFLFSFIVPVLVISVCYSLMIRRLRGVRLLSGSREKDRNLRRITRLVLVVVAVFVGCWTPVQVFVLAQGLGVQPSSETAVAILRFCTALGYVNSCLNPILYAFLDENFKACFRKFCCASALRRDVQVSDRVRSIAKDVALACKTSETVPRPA
UniProt P35372, whole entry, looked up: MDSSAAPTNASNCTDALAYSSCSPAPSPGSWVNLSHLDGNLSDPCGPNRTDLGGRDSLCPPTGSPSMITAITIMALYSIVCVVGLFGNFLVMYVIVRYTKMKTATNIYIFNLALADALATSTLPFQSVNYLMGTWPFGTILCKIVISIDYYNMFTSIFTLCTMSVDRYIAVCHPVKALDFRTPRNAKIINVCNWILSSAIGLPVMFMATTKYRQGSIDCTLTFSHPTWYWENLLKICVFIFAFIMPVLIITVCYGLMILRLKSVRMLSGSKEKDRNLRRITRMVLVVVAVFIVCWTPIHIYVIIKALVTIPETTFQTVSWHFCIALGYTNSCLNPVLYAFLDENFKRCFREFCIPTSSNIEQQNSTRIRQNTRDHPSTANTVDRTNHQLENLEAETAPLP

According to patent US8288430B2, “Spiro(5.5)undecane derivatives” (Grunenthal GmbH, priority 2008, dated 2012):

Experiments:
[1] = target: ORL 1-receptor (Homo sapiens, UniProt P41146); assay: ORL 1 receptor binding assay with 3H-nociceptin/orphanin FQ; details: for % Inhibition (ORL1) [1 μM]: test concentration 1 μM
[2] = target: human μ-opiate receptor (Homo sapiens, UniProt P35372); assay: μ-opiate receptor binding assay with [3H]-naloxone; details: for % Inhibition (μ) [1 μM]: test concentration 1 μM

| Molecule | % Inhibition (ORL1) [1 μM] ([1]; 1 µM) | % Inhibition (μ) [1 μM] ([2]; 1 µM) | % Inhibition (ORL1) [1 μM] [1] | % Inhibition (μ) [1 μM] [2] | Ki ([1]; read-out: Ki (ORL1) Mean, Table 1) | Ki ([2]; read-out: Ki (μ) Mean) |
| --- | --- | --- | --- | --- | --- | --- |
| 4′-(3-fluorophenyl)-N,N-dimethyl-N-2,3,4,9-tetrahydrospiro[carbazole-1,1′-cyclohexane]-4′-amine [Ex. 12] | 96% | 98% |  |  |  |  |
| CN(C)C1(c2ccccc2)CCC2(CCCc3c2[nH]c2ccncc32)CC1 (stereo not drawn) |  |  | 40% | 67% |  |  |
| C[C@@H]1Cc2c([nH]c3ccccc23)C2(CCC(c3ccccc3)(N(C)C)CC2)C1 (stereo partly drawn) |  |  | 96% | 97% |  |  |
| 4′-(3-fluorophenyl)-N,N-dimethyl-N-2,3,4,9-tetrahydrospiro[carbazole-1,1′-cyclohexane]-4′-amine [Ex. 11] | 74% | 91% |  |  |  |  |
| c1ccc(C2(N3CCC3)CCC3(CCCc4c3[nH]c3ccccc43)CC2)cc1 (stereo not drawn) |  |  | 96% | 96% | 11 nM | 7 nM |
